# Measured affinities in a library of Ab-91 heavy chain variants

The measurements come from Engelhart et al. 2022 (doi:10.1038/s41597-022-01779-4) through the FLAb antibody collection.

The target is the same throughout: PDVDLGDISGINAS, from the HR2 region of SARS-CoV-2 spike.

Parent: Ab-91, a human scFv built as VL, a 15-residue (Gly4Ser)3 linker, VH. Only the CDRs of the heavy chain vary.
VL: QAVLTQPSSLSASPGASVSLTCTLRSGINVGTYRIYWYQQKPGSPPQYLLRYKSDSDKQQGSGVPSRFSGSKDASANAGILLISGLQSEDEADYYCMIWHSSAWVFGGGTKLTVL
VH: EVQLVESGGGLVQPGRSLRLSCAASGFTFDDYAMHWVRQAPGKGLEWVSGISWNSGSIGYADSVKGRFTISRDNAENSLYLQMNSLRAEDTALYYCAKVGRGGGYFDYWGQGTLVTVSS

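The parent was found by panning a naive human phage display library on the peptide. Variants in AAYL51 differ from the parent at up to three CDR positions; double and triple changes were sampled at random. The assay is AlphaSeq: two haploid yeast populations carry antibody and antigen on their surface. After mating in shaken culture at 30 °C for 16 h, diploids were selected and their barcode pairs sequenced. A regression on co-assayed BCL2-family reference pairs converts the normalised counts of each replicate to an apparent Kd. There are three technical replicates.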

The parent's heavy chain CDRs are GFTFDDYAMH, GISWNSGSIGYADSVK, VGRGGGYFDY; each variant's own CDRs replace them letter for letter.
Scale: log10 of Kd in nM, estimated from mating counts; low values are strong binders.
"n.d." means that the variant was in the library but no mating with the target was seen in that replicate; the authors take this as a sign of poor binding, and no number exists.
Parent in this assay: reference entry 1.86, copy in this library 0.88.
Empty control strains, which show no peptide, gave a signal in 21% of pairings with library AAYL51; the median was 4.54 and 95% of these signals were weaker than 3.26. No background was subtracted. The control count says in how many pairings with the empty strains this scFv gave a signal, with their mean in brackets.

| CDR-H1 | CDR-H2 | CDR-H3 | log10 Kd (nM) by replicate | control signals |
|---|---|---|---|---|
| GFTFDDYAMH | GIAWNSGSIGKADSVK | VGRGGGDFDY | 4.23 5.79 5.21 | 7 of 9 (4.31) |
| GFTFDDYAMH | GISWNSGSIGYAVSVK | VGRGGGILDY | n.d. n.d. 3.13 | 0 of 9 |
| GFTFDDYVMH | GISWNSGSIGYADSVK | VGRREGYFDY | 4.90 5.37 4.58 | 3 of 9 (4.46) |
| GFTFDDYAMT | GISWNSGSICYADSVA | VGRGGGYFDY | n.d. n.d. n.d. | 2 of 9 (4.21) |
| GFTFDDYAMH | FISWWSGSIGYADSVK | VGRGGGPFDY | 4.47 n.d. n.d. | 1 of 9 (2.83) |
| GFTFDDYAMH | GISWNYGSIGNADSVK | VCRGGGYFDY | 4.60 3.83 4.83 | 3 of 9 (4.41) |
| GFNFDQYAMH | GISWNSGSIGYADSVK | VGRAGGYFDY | 0.96 0.92 0.45 | 8 of 9 (5.65) |
| GFTFDDYSMH | GISWNSGPIGYEDSVK | VGRGGGYFDY | 6.31 5.39 n.d. | 5 of 9 (4.98) |
| GFTFDDYAMH | GIWWKSGSIGYADSVK | VGRGGGYFDY | 4.20 5.37 n.d. | 5 of 9 (4.43) |
| GFTFDDYASI | GISWNSGSIGYADSVK | VFRGGGYFDY | 5.36 n.d. n.d. | 1 of 9 (3.44) |
| GFTFDDYDMV | GISMNSGSIGYADSVK | VGRGGGYFDY | n.d. n.d. n.d. | 2 of 9 (3.97) |
| GFTVDDYAMH | GISWNSGSIGYADSVK | VGRGGKYFDV | n.d. 5.01 4.25 | 0 of 9 |
| GFHFDDIAMH | GISWNSGSIWYADSVK | VGRGGGYFDY | n.d. n.d. n.d. | 1 of 9 (2.45) |
| GFTFDDYAMH | GISWNSGEIPYADSVK | VGRNGGYFDY | n.d. n.d. n.d. | 1 of 9 (3.76) |
| GFTFDDYAKH | GISWISGSIGYADLVK | VGRGGGYFDY | n.d. n.d. n.d. | 0 of 9 |
| GFTFDDYAML | KISWNSGSIGNADSVK | VGRGGGYFDY | 4.27 n.d. 4.51 | 6 of 9 (5.20) |
| GFTFDDYAMH | GISWISGSIGYADSVK | VGMGGRYFDY | 2.92 n.d. n.d. | 0 of 9 |
| GFTFDDWAMH | NISWNSGSIGYADSVK | VGRGGGYFDY | n.d. 6.05 n.d. | 1 of 9 (5.26) |
| GFTFDDYAMH | GISWNSGSQGYADSVK | VIYGGGYFDY | n.d. 5.59 4.20 | 7 of 9 (5.27) |
| WFTFDDYANH | GISWNSYSIGYADSVK | VGRGGGYFDY | n.d. n.d. n.d. | 0 of 9 |
| GFTFDDYAAH | GISANHGSIGYADSVK | VGRGGGYFDY | n.d. n.d. n.d. | 0 of 9 |
| GFTFMDYAMH | GISLNSGSIGYADSVK | VGRGGGYFDY | n.d. n.d. n.d. | 0 of 9 |
| GFTFDDYSMH | GISWNSGSIGYWDSVA | VGRGGGYFDY | n.d. 4.52 4.16 | 0 of 9 |
| GNTFDDYAMH | GISWNSWSIGYAYSVK | VGRGGGYFDY | n.d. 3.87 n.d. | 5 of 9 (4.76) |
| GFTFDDYAMH | YISWNSGSIGYHDSVK | VGRPGGYFDY | n.d. n.d. n.d. | 0 of 9 |
| GFIFDDYAMH | GISWNSGSIGYADVLK | VGRGGGYFDY | n.d. 4.13 n.d. | 0 of 9 |
| GFTFGDYAMH | GISWNSGSIGYADSVK | VGRAGGTFDY | n.d. n.d. n.d. | 1 of 9 (4.19) |
| GFTFDDYAMM | GISWHSGSIGYADSVD | VGRGGGYFDY | 2.73 2.86 2.33 | 5 of 9 (4.74) |
| GFTFDDYAMH | GQSWNSGSIGYADSVK | VGNGGGYLDY | n.d. n.d. n.d. | 0 of 9 |
| GFTFDDYAMF | GISWNSGSIGYTDSVK | VGRGGGYFHY | 4.24 n.d. 4.52 | 2 of 9 (4.24) |
| GFTFEDYAMA | GISWNSYSIGYADSVK | VGRGGGYFDY | n.d. n.d. n.d. | 0 of 9 |
| GFTFDGYAMH | GLSWNSGSYGYADSVK | VGRGGGYFDY | 4.25 4.79 4.19 | 3 of 9 (4.63) |
| QFTFDDYAEH | GISWNSGSCGYADSVK | VGRGGGYFDY | 3.48 3.55 3.41 | 7 of 9 (4.97) |
| GFTFDDYAMH | GISWMSGSIGYADSVI | VGRGGGYFDY | n.d. n.d. 4.19 | 2 of 9 (4.88) |
| GQTFDDYWMH | GISWNSGSWGYADSVK | VGRGGGYFDY | n.d. n.d. n.d. | 1 of 9 (3.07) |
| GNQFDDYAMH | GISWNSGSIGYADSVK | RGRGGGYFDY | n.d. n.d. n.d. | 0 of 9 |
| GFTFDDYAMH | GISWNSGSIQYADSVK | VGRGRGYFAY | n.d. n.d. n.d. | 0 of 9 |
| GFTFDDYAMH | KISWNSGSIQYADSVK | VGRGGGYTDY | 4.55 5.32 n.d. | 1 of 9 (2.56) |
| GFTFDDYAMH | GIDWNSGSIGYADSVK | VGRGGGYFDC | 2.64 2.87 2.44 | 4 of 9 (4.65) |
| GVTFDDYAMH | GISWNSGSIGYADSVK | VGRGGGAFEY | 5.71 5.67 4.25 | 6 of 9 (4.83) |
| GFTFDDYAMH | HISWNSHSPGYADSVK | VGRGGGYFDY | n.d. n.d. n.d. | 0 of 9 |
| GFTFDDYAMH | GISWNVGSIGYADSVK | VQRGGGYFDE | 3.39 n.d. n.d. | 3 of 9 (4.03) |
| GFTFDDYAMD | GSSWNSGSIGYADSVK | VGRGGGYFDY | 5.81 n.d. 3.66 | 2 of 9 (3.78) |
| GFTFDDYMMH | GISWNSGSIGYADSVA | VGRGGGYTDY | n.d. n.d. n.d. | 0 of 9 |
| QFTGDDYAMH | GISWNSGSIGYADSVK | VGRGGGYFDS | 4.74 4.61 5.99 | 9 of 9 (4.94) |
| IFTSDDYAMH | GISWNSGSMGYADSVK | VGRGGGYFDY | 4.74 n.d. n.d. | 1 of 9 (3.34) |
| GFTFDDYAMH | GISWNSGSIGYTDSVK | VGRGGGYFDP | n.d. n.d. 1.13 | 0 of 9 |
| GFTFDDTAMH | GISWNSGSIGYADSEK | VGYGGGYFDY | n.d. n.d. n.d. | 0 of 9 |
| GFTFDDYAMH | GISWNSISIWYADSVK | VGRGGGYNDY | 5.14 5.68 n.d. | 2 of 9 (4.00) |
| GFTFDDYAMH | GISWVSGSIGYADSVH | VGRIGGYFDY | n.d. n.d. n.d. | 3 of 9 (4.03) |
| GRTFADYAMH | GISWNSGSIGYALSVK | VGRGGGYFDY | n.d. n.d. n.d. | 0 of 9 |

The first 5 entries again:

CDR-H1,CDR-H2,CDR-H3,log10 Kd (nM) by replicate,control signals
GFTFDDYAMH,GIAWNSGSIGKADSVK,VGRGGGDFDY,4.23 5.79 5.21,7 of 9 (4.31)
GFTFDDYAMH,GISWNSGSIGYAVSVK,VGRGGGILDY,n.d. n.d. 3.13,0 of 9
GFTFDDYVMH,GISWNSGSIGYADSVK,VGRREGYFDY,4.90 5.37 4.58,3 of 9 (4.46)
GFTFDDYAMT,GISWNSGSICYADSVA,VGRGGGYFDY,n.d. n.d. n.d.,2 of 9 (4.21)
GFTFDDYAMH,FISWWSGSIGYADSVK,VGRGGGPFDY,4.47 n.d. n.d.,1 of 9 (2.83)